This is a selection: effects in other tests are not listed, and their absence says nothing.
Test system: OVCAR3 cells
Experiment: MTT cytotoxicity, OVCAR3 ovarian cancer cells
Conditions: read-out: IC50 OVCAR3, 24 h incubation

## Gold potassium dicyanide
  IC50: 490 nM

Reference: article PMC9405135, “Tuning the Biological Activity of Camphorimine Complexes through Metal Selection” (Antibiotics, 2022)
